Antibody variant affinities, Ab-95 light chain, assay 2

Source: Engelhart et al. 2022 (doi:10.1038/s41597-022-01779-4), MIT Lincoln Laboratory and A-Alpha Bio; data file from the FLAb repository.

Target peptide (SARS-CoV-2 spike, HR2 region): PDVDLGDISGINAS

The variants keep the heavy chain, the linker and the frameworks of Ab-95 (scFv order VH, the linker GGGGSGGGGSGGGGS, VL).
VH: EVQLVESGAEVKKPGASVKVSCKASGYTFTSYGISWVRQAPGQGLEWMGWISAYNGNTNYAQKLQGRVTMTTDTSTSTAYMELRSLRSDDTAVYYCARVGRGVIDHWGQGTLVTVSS
VL: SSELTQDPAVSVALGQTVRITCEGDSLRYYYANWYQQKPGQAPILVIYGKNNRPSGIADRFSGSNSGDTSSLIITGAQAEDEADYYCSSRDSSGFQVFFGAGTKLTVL

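The parent was found by panning a naive human phage display library on the peptide. The library (AAYL52) carries one to three amino acid substitutions per variant, with no insertions or deletions. The scFvs were displayed on barcoded MATa yeast, the peptide on MATalpha yeast. The frequency of each diploid, read from paired DNA barcodes, reflects how well the two displayed proteins bind. Read counts were normalised to the haploid input and turned into Kd by a linear fit to BCL2-family pairs of known affinity, for each replicate. There are three technical replicates.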

Positions count from residue 1 of the parent VL; Y31D puts D in place of Y.
Numbers give log10(Kd / nM), so 0 is 1 nM and 3 is 1 µM. Smaller is tighter.
Replicates are averaged; those with no signal do not enter the mean.
Where no diploid with the target was found in any replicate, the entry reads "nd": below detection, most likely a poor binder, though not proof of it.
The list is sorted by this average, lowest first, undetected variants last.
Empty control strains, which show no peptide, gave a signal in 28% of pairings with library AAYL52; the median was 3.91 and 95% of these signals were weaker than 2.90. No background was subtracted.

| # | changes | log10 Kd (nM), mean | seen in |
|---|---|---|---|
| 1 | Y31D+N52E+S88R | 0.90 | 3 of 3 |
| 2 | E23K+Y30M | 0.98 | 3 of 3 |
| 3 | R28N+S93R | 1.78 | 3 of 3 |
| 4 | Y29Q+Y30A+G49D | 1.92 | 3 of 3 |
| 5 | E23Q+P54A+V97K | 1.99 | 3 of 3 |
| 6 | S26Y+R28S+Y31K | 2.03 | 3 of 3 |
| 7 | S89P+D91E+F95D | 2.08 | 3 of 3 |
| 8 | D25Y+R28W+Y29G | 2.15 | 3 of 3 |
| 9 | K50D+P54S+F98W | 2.24 | 3 of 3 |
| 10 | G24R+K50E+S55D | 2.26 | 3 of 3 |
| 11 | S26I+Y29R+S88C | 2.49 | 3 of 3 |
| 12 | L27C+Y29N+Q96N | 2.56 | 3 of 3 |
| 13 | R53S+S92Y+F98R | 2.61 | 3 of 3 |
| 14 | D25T+S88N+S89V | 2.73 | 3 of 3 |
| 15 | Y31H+P54I+F95G | 2.91 | 3 of 3 |
| 16 | R53N+D91H+S92A | 2.98 | 1 of 3 |
| 17 | G24L+Y30F+Y31E | 3.00 | 3 of 3 |
| 18 | K50G+S92I+S93N | 3.02 | 3 of 3 |
| 19 | G24W+R28H+Y31S | 3.03 | 3 of 3 |
| 20 | Y30Q+S89M+D91Y | 3.03 | 3 of 3 |
| 21 | L27T+N51E+V97C | 3.13 | 1 of 3 |
| 22 | N52Q+S93P+V97A | 3.14 | 2 of 3 |
| 23 | Y29V+S55W+R90G | 3.19 | 1 of 3 |
| 24 | Y31E+N33A+Q96G | 3.21 | 3 of 3 |
| 25 | S26P+Y29K+F98H | 3.24 | 3 of 3 |
| 26 | G24R+D25L+S55Y | 3.27 | 3 of 3 |
| 27 | S89F+Q96W+F98D | 3.39 | 3 of 3 |
| 28 | R28M+F98M | 3.45 | 3 of 3 |
| 29 | G49W+G94M+V97H | 3.48 | 1 of 3 |
| 30 | Y30E+A32N+S93R | 3.50 | 3 of 3 |
| 31 | D25W+R28A+R90V | 3.51 | 2 of 3 |
| 32 | R28N+N51L+V97N | 3.55 | 1 of 3 |
| 33 | Y31L+P54I+S88I | 3.55 | 1 of 3 |
| 34 | D25H+R90G+V97A | 3.56 | 3 of 3 |
| 35 | R53V+S92E+Q96C | 3.57 | 1 of 3 |
| 36 | P54Q+D91K+F98H | 3.61 | 1 of 3 |
| 37 | L27H+N33G+D91A | 3.61 | 3 of 3 |
| 38 | K50D+R53E+F98M | 3.65 | 1 of 3 |
| 39 | S26C+S55P+S93F | 3.66 | 1 of 3 |
| 40 | E23D+A32H+V97C | 3.72 | 2 of 3 |
| 41 | S26R+S55P+D91S | 3.89 | 3 of 3 |
| 42 | D25M+N33F+G94L | 3.93 | 2 of 3 |
| 43 | S26H+R28E+S92W | 3.93 | 1 of 3 |
| 44 | Y29K+P54K+V97D | 3.95 | 2 of 3 |
| 45 | E23A+L27T+P54C | 4.03 | 2 of 3 |
| 46 | L27S+F95W+Q96H | 4.06 | 3 of 3 |
| 47 | R28A+Y30P+N33G | 4.08 | 1 of 3 |
| 48 | D25W+A32F+N52L | 4.20 | 2 of 3 |
| 49 | D25F+N33D+N51R | 4.24 | 1 of 3 |
| 50 | K50F+V97E | 4.24 | 2 of 3 |
| 51 | D25Y+D91Y+V97E | 4.31 | 1 of 3 |
| 52 | N33K+S93N+G94V | 4.37 | 1 of 3 |
| 53 | L27G+Y31F+R53A | 4.41 | 1 of 3 |
| 54 | G24A+D25S+P54K | 4.52 | 3 of 3 |
| 55 | P54N+D91K | 4.55 | 2 of 3 |
| 56 | R53Y+S88L | 4.71 | 1 of 3 |
| 57 | E23I+D91Y+S93Q | 4.75 | 1 of 3 |
| 58 | N33E+S55I+G94T | 4.81 | 1 of 3 |
| 59 | S26Q+R28P+P54N | 4.81 | 1 of 3 |
| 60 | L27R+N33K+G94Q | 4.88 | 1 of 3 |
| 61 | E23R+N33L+D91N | 4.97 | 3 of 3 |
| 62 | D25P+S55G+S89L | nd | 0 of 3 |
| 63 | A32L+K50L+V97M | nd | 0 of 3 |
| 64 | G94T+F95D+F98D | nd | 0 of 3 |
| 65 | R53E+S88W+F98M | nd | 0 of 3 |
| 66 | G49H+S92V+F98Q | nd | 0 of 3 |
| 67 | R28V+R90D+F98D | nd | 0 of 3 |
| 68 | S26C+S89W+G94R | nd | 0 of 3 |
| 69 | D25I+S26K+K50A | nd | 0 of 3 |
| 70 | G24I+F95Q+Q96Y | nd | 0 of 3 |
| 71 | L27W+P54I+V97G | nd | 0 of 3 |
| 72 | G49I+P54M | nd | 0 of 3 |
| 73 | G49E+K50M+R90I | nd | 0 of 3 |
| 74 | N51P+R53F+S89C | nd | 0 of 3 |

Picked from the list: the 7 lowest averages where every replicate gave a value.

| changes | log10 Kd (nM), mean | seen in |
|---|---|---|
| Y31D+N52E+S88R | 0.90 | 3 of 3 |
| E23K+Y30M | 0.98 | 3 of 3 |
| R28N+S93R | 1.78 | 3 of 3 |
| Y29Q+Y30A+G49D | 1.92 | 3 of 3 |
| E23Q+P54A+V97K | 1.99 | 3 of 3 |
| S26Y+R28S+Y31K | 2.03 | 3 of 3 |
| S89P+D91E+F95D | 2.08 | 3 of 3 |